# Reference: PubChem BioAssay AID504803 (The Scripps Research Institute Molecular Screening Center, 2011)
# Amino acid sequences for entries named in this document (tags omitted).
# UniProt Q92743, whole entry: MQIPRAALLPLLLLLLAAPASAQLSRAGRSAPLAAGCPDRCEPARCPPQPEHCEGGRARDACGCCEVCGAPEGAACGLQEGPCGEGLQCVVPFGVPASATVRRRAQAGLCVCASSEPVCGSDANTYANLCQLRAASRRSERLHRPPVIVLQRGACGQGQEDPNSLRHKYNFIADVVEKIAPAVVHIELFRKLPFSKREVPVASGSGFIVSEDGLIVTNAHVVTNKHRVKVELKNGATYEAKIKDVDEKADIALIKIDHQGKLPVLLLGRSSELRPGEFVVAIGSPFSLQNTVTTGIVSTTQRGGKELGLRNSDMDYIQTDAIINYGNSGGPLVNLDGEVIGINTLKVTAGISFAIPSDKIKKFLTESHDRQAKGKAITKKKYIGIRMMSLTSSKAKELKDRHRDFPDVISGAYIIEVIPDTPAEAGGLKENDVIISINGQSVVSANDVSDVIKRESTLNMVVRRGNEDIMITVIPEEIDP
# This is a selection; strong and weak results do not stand in their true shares. Active and inactive are the calls of the source. Rule as the data show it: active = inhibition above about 36%; inactive = the rest.
# Molecular target: Serine protease HTRA1 (Homo sapiens) (UniProt Q92743)
# Assay: HTRA1 serine protease inhibitors, primary screen, biochemical, fluorescence polarization, HTS (AID 504803);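 also: 0% = enzyme with DMSO and 100% = wells lacking enzyme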
# Conditions: recombinant HTRA1, FP-rhodamine activity-based probe, at 5.96 µM, active compounds read high
row,Structure (SMILES),inhibition
1,CCC(=O)N(c1ccccc1)C1(COC)CCN(CCn2nnn(CC)c2=O)CC1,inactive: -0.87%
2,CCC(=O)N(c1ccccc1)C1(COC)CCN(CCc2cccs2)CC1,inactive: -8.83%
